From patent US11634412B2, “3-phosphoglycerate dehydrogenase inhibitors and uses thereof” (Raze Therapeutics, Inc., priority 2016, dated 2023)

Amino acid sequences for entries named in this document (tags omitted).
UniProt O43175, whole entry: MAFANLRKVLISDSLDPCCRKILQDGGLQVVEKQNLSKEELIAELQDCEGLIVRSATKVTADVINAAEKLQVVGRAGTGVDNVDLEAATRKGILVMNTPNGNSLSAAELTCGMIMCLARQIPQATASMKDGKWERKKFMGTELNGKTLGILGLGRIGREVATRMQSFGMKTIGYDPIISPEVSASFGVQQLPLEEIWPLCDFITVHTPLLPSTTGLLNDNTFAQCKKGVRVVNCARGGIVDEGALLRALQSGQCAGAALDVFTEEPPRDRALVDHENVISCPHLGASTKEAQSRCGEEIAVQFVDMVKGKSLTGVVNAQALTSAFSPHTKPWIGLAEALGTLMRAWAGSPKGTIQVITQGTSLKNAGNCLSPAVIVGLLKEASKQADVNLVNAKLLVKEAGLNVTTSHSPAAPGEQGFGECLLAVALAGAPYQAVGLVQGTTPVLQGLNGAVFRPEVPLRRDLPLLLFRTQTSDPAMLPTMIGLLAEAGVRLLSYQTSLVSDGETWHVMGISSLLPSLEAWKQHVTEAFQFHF

What follows are compounds tested against T1, Full length (FL) 3-Phosphoglycerate Dehydrogenase (PHGDH) (Homo sapiens, UniProt O43175) (assay: Full length (FL) PHGDH Diaphorase coupled assay (20 uM NAD)). Settings: read-out: FL Diaphorase 20 μM NAD, full-length PHGDH 10 nM, 30° C. 60 minutes, resorufin fluorescence.

| SMILES | IC50 [µM] |
| --- | --- |
| CC(=O)NS(=O)(=O)N1CCC(NC(=O)c2cc3c(Cl)c(Cl)ccc3n2C)(c2ccccc2)CC1 | 5 to 10 |

These compounds were tested against T1, Full length (FL) 3-Phosphoglycerate Dehydrogenase (PHGDH) (assay: Full length (FL) PHGDH Diaphorase coupled assay (500 uM NAD)). Settings: read-out: FL Diaphorase 500 μM NAD, full-length PHGDH 5 nM, 30° C. 60 minutes, resorufin fluorescence.

| SMILES | IC50 [nM] |
| --- | --- |
| COc1ccc2c(cc(C(=O)NC3(c4ccc(C(C(=O)O)C5CCOCC5)cc4)COC3)n2C)c1Cl (stereo not shown) | 1 to 1000 |
| CC(=O)NS(=O)(=O)c1ccc(C2(NC(=O)c3cc4c(Cl)c(Cl)ccc4n3C)COC2)cc1 | 1 to 1000 |
| COc1ccc2c(cc(C(=O)NC3(c4ccc(C(C(=O)O)C(C)C)cc4)COC3)n2C)c1Cl (single isomer, unassigned) | 1 to 1000 |
| COc1ccc2c(cc(C(=O)NC3(c4ccc(C(C(=O)O)C5CCCC5)cc4)COC3)n2C)c1Cl (single isomer, unassigned) | 1 to 1000 |
| Cn1c(C(=O)NC2(c3ccc(C(=O)O)cc3)CCOCC2)cc2c(Cl)c(Cl)ccc21 | 1000 to 5000 |
| Cn1c(C(=O)NC2(c3ccc(C(=O)O)cc3)CCOC2)cc2c(Cl)c(Cl)c(OCC(O)CN)cc21 (stereo not shown) | 1000 to 5000 |
